Ab-14 light chain CDR variants: yeast mating affinities

Target: peptide PDVDLGDISGINAS, taken from heptad repeat 2 (HR2) of SARS-CoV-2 spike.

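Phage display of a naive human antibody library on the peptide gave the parent. Variants in AAYL50 differ from the parent at up to three CDR positions; double and triple changes were sampled at random. AlphaSeq pools MATa yeast showing the antibodies with MATalpha yeast showing the peptide. Mating (16 h, 30 °C) was followed by selection of diploids and sequencing of their barcodes. Each replicate has its own calibration line, from reference interactions of the BCL2 family. The assay was run in three technical replicates.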

Ab-14 is the parent antibody, in scFv form: VH, then a (GGGGS)3 linker, then VL. The heavy chain is unchanged in all variants.
VH: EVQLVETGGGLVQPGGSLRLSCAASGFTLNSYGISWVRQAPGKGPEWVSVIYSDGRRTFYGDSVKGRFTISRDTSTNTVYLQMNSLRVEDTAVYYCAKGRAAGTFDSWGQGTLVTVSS
VL: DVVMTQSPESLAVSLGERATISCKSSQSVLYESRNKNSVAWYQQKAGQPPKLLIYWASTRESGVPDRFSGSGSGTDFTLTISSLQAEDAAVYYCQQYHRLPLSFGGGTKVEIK

The parent's light chain CDRs are KSSQSVLYESRNKNSVA, WASTRES, QQYHRLPLS; each variant's own CDRs replace them letter for letter. Scale: log10 of Kd in nM, estimated from mating counts; low values are strong binders. An entry "n.d." has no value in the source: the pair was not observed among the diploids in that replicate. This suggests poor binding but is not conclusive. In this assay the parent's reference entry averaged 0.65; its copy inside this library read 1.68.

CDR-L1	CDR-L2	CDR-L3	log10 Kd (nM) by replicate	signal with controls
KSSQSVLYESRNKNQVA	WASTRES	QFYHRLPLV	n.d. / n.d. / n.d.	0 of 9
KSSQSVLYESENKNSVH	WASTRES	QQYHRPPLS	n.d. / n.d. / n.d.	0 of 9
KSSQNVLYEMRNKNSVA	WASTRES	QQTHRLPLS	1.85 / 2.01 / 1.97	1 of 9 (3.64)
KPSQSVLYESRNKNSVA	WASIRES	QQYSRLPLS	0.29 / 0.57 / 0.43	4 of 9 (4.04)
KSSQSVLYESRNKNSVA	WVSTRSS	QQYHRLPWS	n.d. / n.d. / n.d.	3 of 9 (3.59)
QSSQSVLYESRNKNSVA	WWSTRES	QQTHRLPLS	n.d. / n.d. / 3.83	1 of 9 (3.36)
KSSQSVNYYSRNKNSVA	WASTRES	QQYCRLPLS	1.42 / 1.42 / 1.51	2 of 9 (4.58)
KSSQSVLSESRNTNSVA	WASTRFS	QQYHRLPLS	0.40 / 0.68 / 0.48	0 of 9
KSSQSVLYESRNKNVVN	WASTRES	QQYHRLHLS	5.98 / n.d. / n.d.	2 of 9 (4.30)
KSSQSVSYESQNKNSVA	WASTREM	QQYHRLPLS	0.59 / 0.73 / 0.69	2 of 9 (4.33)
KSSQTVLEESRNKNSVA	IASTRES	QQYHRLPLS	3.57 / 3.60 / 2.93	0 of 9
KSSQSVLYESRNKNSVA	WAKVRES	QQYKRLPLS	2.31 / 2.46 / 2.45	0 of 9
KSSQSVLYESQNKIFVA	WASTRES	QQYHRLPLS	n.d. / 3.75 / 4.66	3 of 9 (4.47)
RSSQSVLYESRNKNSVA	WASYRWS	QQYHRLPLS	2.35 / n.d. / 2.12	0 of 9
KSSQSVLYEGRNKNSVA	TASTRES	MQYHRLPLS	1.95 / 1.60 / 2.11	5 of 9 (3.84)
KSSQTVLYEMRNKNSVA	WASTRES	QQYHRLPLS	n.d. / 2.85 / n.d.	0 of 9
KSSQSVLYESRNKNSVA	WASTRES	QQYHRHKLS	n.d. / n.d. / n.d.	1 of 9 (4.01)
KSSQSVLYRSRNKNSVA	WASTRES	QCYHRLLLS	1.17 / 1.24 / 1.15	0 of 9
KSSQSVLYEHRNKNSVA	WAHTRES	QQYCRLPLS	2.56 / 1.72 / 2.14	1 of 9 (4.43)
KSSQSVLYESRNKNSVA	WASTRES	QNYHRLPES	n.d. / 4.68 / n.d.	1 of 9 (3.68)
KSSQSVLYASRNKNSVA	WHSTRES	QQYQRLPLS	n.d. / n.d. / n.d.	0 of 9
KSSQSVLYESRNKNSVA	WASTRES	QQYCRLNLP	4.76 / 4.40 / n.d.	1 of 9 (4.05)
KSSQSVLYESRNKNSVA	WASTIEG	TQYHRLPLS	n.d. / 4.42 / n.d.	3 of 9 (4.15)
KSSQSVLWESRNKNSVA	WAHTRER	QQYHRLPLS	n.d. / n.d. / n.d.	0 of 9
CSSQSVLYESRNKNSVA	WASTRES	EQYHQLPLS	3.15 / 4.63 / 3.18	5 of 9 (4.34)
KSSQSVLYESRNYQSVA	WASTRES	QQYHQLPLS	2.05 / 1.62 / 1.67	0 of 9
KSSQSVLLESRNKNSHA	WASTRES	QQYHRRPLS	n.d. / n.d. / n.d.	3 of 9 (3.81)
KSSQSVLYESRNKNSVC	WASTRES	EQAHRLPLS	n.d. / 4.45 / 5.42	4 of 9 (3.79)
KSSQSVAYESRNKNSVA	WASTMES	QQYHYLPLS	n.d. / n.d. / n.d.	0 of 9
KSSQVVLYESRNKNSVL	WASTRES	QIYHRLPLS	n.d. / n.d. / n.d.	1 of 9 (2.93)
KSSQSVLYEMRNKNSVA	WASTRPS	QQRHRLPLS	n.d. / n.d. / n.d.	1 of 9 (3.53)
KSSQSVLYESRNKNSLA	WHSTGES	QQYHRLPLS	3.82 / n.d. / n.d.	4 of 9 (4.10)
KSSQKVLYESRNKNSVA	WASTRES	LQYHRLPLS	1.30 / 1.36 / 1.43	4 of 9 (3.87)
KSSQSVLYESRNKNSVA	WASTTES	QQYSRLPLS	3.32 / 3.81 / 3.48	0 of 9
KSSQSVFYEERNKNSVA	WASTRES	QQYQRLPLS	0.63 / 0.73 / 0.60	0 of 9
KSSQSVLYESRNKNSPA	YASTRES	QQYHRNPLS	n.d. / n.d. / 5.51	3 of 9 (4.44)
KSSQSVLNESRNKNPVA	WASTRES	QQYHRLPPS	n.d. / n.d. / 3.10	1 of 9 (3.08)
KSSQSVLYESRNKNIVA	WAIERES	QQYHRLPLS	4.50 / n.d. / n.d.	2 of 9 (4.11)
KSSQSVCYESRNKNSVA	WASTRYS	QQGHRLPLS	n.d. / n.d. / 3.74	1 of 9 (2.72)
KSSQSVLYESRWKNSVA	WASTRES	QQYHRDPLS	2.09 / 2.07 / 1.94	3 of 9 (3.50)
KSSQSVLYDSRNKNSVA	WGSTRES	QQDHRLPLS	n.d. / 4.08 / n.d.	1 of 9 (5.09)
WSSQSVLYESRNKNSEA	WASTRES	QQYHRTPLS	n.d. / n.d. / n.d.	1 of 9 (2.35)
KSSQSLLYESRNANSVA	WASTRES	QQYHRLPLS	0.14 / 0.42 / 0.28	4 of 9 (4.63)

Extract of 3 entries:

| CDR-L1 | CDR-L2 | CDR-L3 | log10 Kd (nM) by replicate | signal with controls |
|---|---|---|---|---|
| KSSQSVLYESRNKNIVA | WAIERES | QQYHRLPLS | 4.50 / n.d. / n.d. | 2 of 9 (4.11) |
| CSSQSVLYESRNKNSVA | WASTRES | EQYHQLPLS | 3.15 / 4.63 / 3.18 | 5 of 9 (4.34) |
| KSSQSVLYESRNKNQVA | WASTRES | QFYHRLPLV | n.d. / n.d. / n.d. | 0 of 9 |

Nonspecific signal, from three strains lacking the peptide, appeared in 18% of pairings of library AAYL50, centred on 4.19 (5% of these signals below 2.99); values are not corrected for it. Also given: how often the same scFv was detected with the empty control strains, with their mean in brackets.

The measurements come from Engelhart et al. 2022 (doi:10.1038/s41597-022-01779-4) through the FLAb antibody collection.